Earlier results, collected in article PMC7004556 (Cancer Science, 2020).

Tested on: advanced solid tumors
Conditions: Japanese patients with advanced solid tumors; cited from earlier work

Substance: AZD4547
- Tolerability: well tolerated
